In publication PMC5693303 (Journal of medicinal chemistry, 2016) one finds Ki data, which are given here for one molecule.

This assay deals with KOR (Homo sapiens, UniProt P41145). The experiment in a line: Radioligand competition binding, [^3H]U69,593.

pKi: −log10 of the molar value.

In the case of `CC[C@H](C)[C@H](NC(=O)[C@H](CCCNC(=N)N)NC(=O)[C@H](CC(C)C)NC(=O)[C@H](Cc1ccccc1)NC(=O)CNC(=O)CNC(=O)[C@@H](N)Cc1ccc(O)cc1)C(=O)N[C@@H](CCCNC(=N)N)C(N)=O` [compound 13], the negative logarithm of the Ki (pKi) – broadly, the Ki on a negative log10 scale, so that one unit is a factor of ten – was 9.66.
